Laboratory results as given in ChEMBL document CHEMBL4359863, “Structure-guided development of purine amide, hydroxamate, and amidoxime for the inhibition of non-small cell lung cancer” (Eur J Med Chem, 2019).

By UniProt entry, the sequences of proteins in these tests, tags left out. Where a name states a change or a piece, a line headed by the entry shows the natural chain unless it says otherwise.
UniProt P51812, whole entry, looked up: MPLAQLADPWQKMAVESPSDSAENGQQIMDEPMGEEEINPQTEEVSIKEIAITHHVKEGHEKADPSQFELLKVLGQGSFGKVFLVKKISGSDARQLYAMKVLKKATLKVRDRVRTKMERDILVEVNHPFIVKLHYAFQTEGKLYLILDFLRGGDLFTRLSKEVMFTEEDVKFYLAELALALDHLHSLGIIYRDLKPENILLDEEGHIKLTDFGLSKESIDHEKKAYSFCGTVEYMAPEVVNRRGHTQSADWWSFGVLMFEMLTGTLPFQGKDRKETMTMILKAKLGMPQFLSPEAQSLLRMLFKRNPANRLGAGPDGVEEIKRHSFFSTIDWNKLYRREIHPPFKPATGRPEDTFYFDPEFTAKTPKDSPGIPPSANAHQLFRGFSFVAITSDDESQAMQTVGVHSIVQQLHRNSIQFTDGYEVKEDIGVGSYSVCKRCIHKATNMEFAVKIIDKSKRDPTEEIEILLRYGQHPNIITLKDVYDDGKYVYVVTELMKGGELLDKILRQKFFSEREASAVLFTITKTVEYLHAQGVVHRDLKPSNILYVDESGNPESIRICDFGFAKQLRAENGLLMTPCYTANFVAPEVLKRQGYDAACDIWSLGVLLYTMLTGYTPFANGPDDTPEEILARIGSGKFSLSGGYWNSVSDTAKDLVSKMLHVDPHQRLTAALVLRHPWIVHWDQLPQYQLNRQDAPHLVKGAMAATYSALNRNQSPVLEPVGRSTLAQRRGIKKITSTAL
UniProt Q15349, whole entry, looked up: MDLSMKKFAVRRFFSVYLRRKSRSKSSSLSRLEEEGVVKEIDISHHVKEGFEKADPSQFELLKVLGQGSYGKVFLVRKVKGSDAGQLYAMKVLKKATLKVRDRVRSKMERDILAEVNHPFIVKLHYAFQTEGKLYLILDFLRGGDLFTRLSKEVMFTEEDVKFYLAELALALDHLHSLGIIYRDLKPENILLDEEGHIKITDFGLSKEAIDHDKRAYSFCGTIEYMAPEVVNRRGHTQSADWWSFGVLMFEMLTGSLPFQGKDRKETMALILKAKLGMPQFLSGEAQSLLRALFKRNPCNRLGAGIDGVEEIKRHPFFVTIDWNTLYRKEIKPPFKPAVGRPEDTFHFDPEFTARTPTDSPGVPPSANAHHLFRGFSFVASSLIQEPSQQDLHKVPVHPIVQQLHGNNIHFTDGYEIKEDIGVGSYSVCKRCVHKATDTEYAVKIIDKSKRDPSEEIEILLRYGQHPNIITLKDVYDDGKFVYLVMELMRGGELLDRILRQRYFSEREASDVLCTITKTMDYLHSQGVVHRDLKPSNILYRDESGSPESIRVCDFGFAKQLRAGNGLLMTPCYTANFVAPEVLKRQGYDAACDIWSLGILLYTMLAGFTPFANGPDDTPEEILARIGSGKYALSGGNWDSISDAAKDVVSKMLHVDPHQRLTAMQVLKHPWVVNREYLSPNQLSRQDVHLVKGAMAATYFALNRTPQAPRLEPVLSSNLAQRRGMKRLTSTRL
UniProt Q13131: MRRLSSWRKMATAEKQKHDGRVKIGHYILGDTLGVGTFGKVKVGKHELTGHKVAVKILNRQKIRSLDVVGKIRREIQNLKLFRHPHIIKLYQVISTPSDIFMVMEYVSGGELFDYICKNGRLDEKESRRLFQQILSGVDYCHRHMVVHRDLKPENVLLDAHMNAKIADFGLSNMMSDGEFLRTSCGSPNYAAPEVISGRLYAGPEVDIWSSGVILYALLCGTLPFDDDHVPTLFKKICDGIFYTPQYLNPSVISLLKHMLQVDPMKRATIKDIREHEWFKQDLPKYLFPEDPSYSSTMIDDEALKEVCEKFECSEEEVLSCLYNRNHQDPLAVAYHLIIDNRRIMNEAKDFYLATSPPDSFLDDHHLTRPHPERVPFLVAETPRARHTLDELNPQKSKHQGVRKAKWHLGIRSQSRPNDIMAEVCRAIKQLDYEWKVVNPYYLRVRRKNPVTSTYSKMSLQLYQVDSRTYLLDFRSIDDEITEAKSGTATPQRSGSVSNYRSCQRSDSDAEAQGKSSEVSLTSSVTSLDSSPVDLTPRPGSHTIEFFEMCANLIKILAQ
UniProt P07948: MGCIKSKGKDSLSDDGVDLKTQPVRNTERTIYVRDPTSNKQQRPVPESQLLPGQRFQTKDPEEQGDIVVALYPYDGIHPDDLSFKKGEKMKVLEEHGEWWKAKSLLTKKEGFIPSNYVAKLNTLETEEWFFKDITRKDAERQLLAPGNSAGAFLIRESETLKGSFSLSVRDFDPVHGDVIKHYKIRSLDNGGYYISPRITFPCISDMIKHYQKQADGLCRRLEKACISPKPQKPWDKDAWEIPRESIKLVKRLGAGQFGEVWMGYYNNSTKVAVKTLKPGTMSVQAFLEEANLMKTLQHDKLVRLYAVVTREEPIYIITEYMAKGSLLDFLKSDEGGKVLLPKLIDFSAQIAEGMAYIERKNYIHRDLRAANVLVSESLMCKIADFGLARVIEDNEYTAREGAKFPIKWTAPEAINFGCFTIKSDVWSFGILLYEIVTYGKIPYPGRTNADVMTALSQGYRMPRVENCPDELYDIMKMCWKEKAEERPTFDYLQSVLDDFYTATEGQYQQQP
UniProt P29474: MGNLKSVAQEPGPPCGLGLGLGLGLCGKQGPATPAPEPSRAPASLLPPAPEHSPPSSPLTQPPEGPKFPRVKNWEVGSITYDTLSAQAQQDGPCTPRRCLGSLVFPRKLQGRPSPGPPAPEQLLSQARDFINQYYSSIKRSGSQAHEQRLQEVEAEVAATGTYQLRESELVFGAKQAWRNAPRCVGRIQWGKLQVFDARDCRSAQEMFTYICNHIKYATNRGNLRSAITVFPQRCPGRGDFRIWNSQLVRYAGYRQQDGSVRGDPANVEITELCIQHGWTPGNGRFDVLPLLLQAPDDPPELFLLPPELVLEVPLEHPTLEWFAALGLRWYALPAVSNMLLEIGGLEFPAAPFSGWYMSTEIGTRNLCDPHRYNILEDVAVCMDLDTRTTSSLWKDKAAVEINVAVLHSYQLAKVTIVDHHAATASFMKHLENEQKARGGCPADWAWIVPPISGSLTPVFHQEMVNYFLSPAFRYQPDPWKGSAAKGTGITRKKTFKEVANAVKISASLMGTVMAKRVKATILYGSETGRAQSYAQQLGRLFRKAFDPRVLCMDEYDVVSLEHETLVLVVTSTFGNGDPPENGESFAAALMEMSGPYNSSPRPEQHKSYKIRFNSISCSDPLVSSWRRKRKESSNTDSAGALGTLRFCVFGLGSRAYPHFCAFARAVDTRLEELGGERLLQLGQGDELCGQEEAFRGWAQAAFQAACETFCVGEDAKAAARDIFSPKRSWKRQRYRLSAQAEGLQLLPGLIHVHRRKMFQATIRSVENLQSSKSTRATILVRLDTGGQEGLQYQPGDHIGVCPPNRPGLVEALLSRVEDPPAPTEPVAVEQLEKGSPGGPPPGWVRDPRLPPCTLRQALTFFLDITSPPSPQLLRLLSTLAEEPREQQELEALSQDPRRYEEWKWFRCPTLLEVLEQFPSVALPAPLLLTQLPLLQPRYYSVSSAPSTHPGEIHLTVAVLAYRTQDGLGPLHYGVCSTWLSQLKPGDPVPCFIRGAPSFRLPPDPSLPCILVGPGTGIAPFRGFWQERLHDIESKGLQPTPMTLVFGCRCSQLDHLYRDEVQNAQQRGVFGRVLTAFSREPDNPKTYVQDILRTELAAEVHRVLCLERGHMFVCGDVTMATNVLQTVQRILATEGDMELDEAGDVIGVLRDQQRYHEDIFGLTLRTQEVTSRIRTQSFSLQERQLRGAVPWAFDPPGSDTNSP
UniProt P31751: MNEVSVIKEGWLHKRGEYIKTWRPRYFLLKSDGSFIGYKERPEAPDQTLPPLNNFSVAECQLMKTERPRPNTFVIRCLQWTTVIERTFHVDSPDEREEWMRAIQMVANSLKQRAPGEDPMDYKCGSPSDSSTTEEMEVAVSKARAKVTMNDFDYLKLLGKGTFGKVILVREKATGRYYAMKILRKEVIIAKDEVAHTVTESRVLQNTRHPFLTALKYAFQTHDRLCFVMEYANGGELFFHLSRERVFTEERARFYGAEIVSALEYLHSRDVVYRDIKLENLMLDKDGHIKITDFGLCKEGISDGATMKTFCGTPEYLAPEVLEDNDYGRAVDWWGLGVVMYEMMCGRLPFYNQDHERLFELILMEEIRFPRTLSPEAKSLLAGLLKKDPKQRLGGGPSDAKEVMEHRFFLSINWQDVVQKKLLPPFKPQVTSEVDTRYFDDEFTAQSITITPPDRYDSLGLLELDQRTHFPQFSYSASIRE
UniProt Q9Y243: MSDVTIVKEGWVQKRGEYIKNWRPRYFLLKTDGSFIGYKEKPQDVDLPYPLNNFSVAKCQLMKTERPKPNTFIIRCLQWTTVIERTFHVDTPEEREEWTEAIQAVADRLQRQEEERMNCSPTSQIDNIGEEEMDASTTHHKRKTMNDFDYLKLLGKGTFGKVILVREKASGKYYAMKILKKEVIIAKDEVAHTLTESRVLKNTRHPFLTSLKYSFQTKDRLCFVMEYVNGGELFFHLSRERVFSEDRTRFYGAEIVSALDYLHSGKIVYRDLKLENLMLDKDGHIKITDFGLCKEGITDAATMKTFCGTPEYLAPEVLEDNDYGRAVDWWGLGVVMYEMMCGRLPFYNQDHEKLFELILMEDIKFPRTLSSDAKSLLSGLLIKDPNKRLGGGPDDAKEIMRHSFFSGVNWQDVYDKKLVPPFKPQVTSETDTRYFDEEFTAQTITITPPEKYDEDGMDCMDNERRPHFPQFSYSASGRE
UniProt P31749: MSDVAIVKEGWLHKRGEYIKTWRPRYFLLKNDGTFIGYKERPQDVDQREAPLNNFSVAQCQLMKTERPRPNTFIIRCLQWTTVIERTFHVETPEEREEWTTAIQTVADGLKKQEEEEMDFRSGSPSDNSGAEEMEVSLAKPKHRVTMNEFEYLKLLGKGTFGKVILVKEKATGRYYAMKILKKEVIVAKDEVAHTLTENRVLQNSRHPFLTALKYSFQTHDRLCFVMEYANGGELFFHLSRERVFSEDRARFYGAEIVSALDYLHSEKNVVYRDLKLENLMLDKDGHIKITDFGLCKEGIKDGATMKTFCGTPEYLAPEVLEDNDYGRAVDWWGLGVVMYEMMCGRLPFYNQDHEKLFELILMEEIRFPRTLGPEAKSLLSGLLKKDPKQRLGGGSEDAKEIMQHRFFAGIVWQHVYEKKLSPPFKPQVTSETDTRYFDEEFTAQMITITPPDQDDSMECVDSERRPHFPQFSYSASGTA
UniProt P51692: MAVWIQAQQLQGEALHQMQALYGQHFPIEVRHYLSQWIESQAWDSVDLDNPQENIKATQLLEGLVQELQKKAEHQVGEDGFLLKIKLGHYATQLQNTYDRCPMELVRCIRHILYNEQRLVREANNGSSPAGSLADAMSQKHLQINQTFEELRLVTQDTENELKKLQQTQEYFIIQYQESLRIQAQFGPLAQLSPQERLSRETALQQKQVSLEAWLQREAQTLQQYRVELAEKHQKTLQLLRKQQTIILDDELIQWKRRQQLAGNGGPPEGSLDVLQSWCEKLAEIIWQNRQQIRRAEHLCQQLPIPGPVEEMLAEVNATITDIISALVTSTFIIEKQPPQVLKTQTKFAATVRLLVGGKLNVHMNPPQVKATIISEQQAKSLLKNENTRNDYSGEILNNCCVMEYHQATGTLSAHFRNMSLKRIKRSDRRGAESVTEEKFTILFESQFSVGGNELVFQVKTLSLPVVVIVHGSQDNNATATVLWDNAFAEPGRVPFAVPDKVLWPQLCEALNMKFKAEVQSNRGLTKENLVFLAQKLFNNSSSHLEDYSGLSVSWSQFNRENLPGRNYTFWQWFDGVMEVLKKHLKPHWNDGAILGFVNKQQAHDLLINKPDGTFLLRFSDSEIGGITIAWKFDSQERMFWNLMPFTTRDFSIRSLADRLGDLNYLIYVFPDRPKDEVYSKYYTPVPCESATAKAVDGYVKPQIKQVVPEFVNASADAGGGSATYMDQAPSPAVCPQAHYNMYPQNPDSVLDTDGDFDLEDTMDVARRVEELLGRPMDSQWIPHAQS
UniProt P04792, whole entry: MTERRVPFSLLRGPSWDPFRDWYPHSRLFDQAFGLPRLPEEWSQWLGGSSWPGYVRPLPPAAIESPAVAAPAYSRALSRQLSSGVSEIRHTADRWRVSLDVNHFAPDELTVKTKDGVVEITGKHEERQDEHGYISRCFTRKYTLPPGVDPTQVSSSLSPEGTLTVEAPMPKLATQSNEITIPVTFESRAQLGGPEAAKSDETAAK
UniProt P46527, whole entry: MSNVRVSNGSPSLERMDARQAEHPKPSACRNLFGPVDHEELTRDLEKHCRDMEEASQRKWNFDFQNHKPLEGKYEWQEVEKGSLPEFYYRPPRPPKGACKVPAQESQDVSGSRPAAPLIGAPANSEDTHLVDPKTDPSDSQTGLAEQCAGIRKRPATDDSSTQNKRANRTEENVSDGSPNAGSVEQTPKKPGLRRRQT

What was measured:
Format in all cases: cell-based
[1] = target: Ribosomal protein S6 kinase beta-1 (Homo sapiens) (UniProt P23443); assay: Effect on p70S6 Kinase at T389 phosphorylation level in human NCI-H1975 incubated for 12 hrs by human phosphokinase proteome profiler array relative to beta-catenin
[2] = target: RPS6KA1/RPS6KA2/RPS6KA3 (Homo sapiens) (UniProt P51812+Q15349+Q15418); assay: Effect on RSK1/2/3 at S380/S386/S377 phosphorylation level in human NCI-H1975 incubated for 12 hrs by human phosphokinase proteome profiler array relative to control
[3] = target: 5'-AMP-activated protein kinase catalytic subunit alpha-1 (Homo sapiens) (UniProt Q13131); assay: Effect on AMPK alpha1 at T183 phosphorylation level in human NCI-H1975 incubated for 12 hrs by human phosphokinase proteome profiler array relative to control
[4] = target: Tyrosine-protein kinase Lyn (Homo sapiens) (UniProt P07948); assay: Effect on LYN at Y397 phosphorylation level in human NCI-H1975 incubated for 12 hrs by human phosphokinase proteome profiler array relative to beta-catenin
[5] = target: Nitric oxide synthase 3 (Homo sapiens) (UniProt P29474); assay: Effect on eNOS at S1177 phosphorylation level in human NCI-H1975 incubated for 12 hrs by human phosphokinase proteome profiler array relative to control
[6] = target: T1, Signal transducer and activator of transcription 5A (Homo sapiens) (UniProt P42229); assay: Effect on STAT5a at Y694 phosphorylation level in human NCI-H1975 incubated for 12 hrs by human phosphokinase proteome profiler array relative to control
T1 sequence (whole entry): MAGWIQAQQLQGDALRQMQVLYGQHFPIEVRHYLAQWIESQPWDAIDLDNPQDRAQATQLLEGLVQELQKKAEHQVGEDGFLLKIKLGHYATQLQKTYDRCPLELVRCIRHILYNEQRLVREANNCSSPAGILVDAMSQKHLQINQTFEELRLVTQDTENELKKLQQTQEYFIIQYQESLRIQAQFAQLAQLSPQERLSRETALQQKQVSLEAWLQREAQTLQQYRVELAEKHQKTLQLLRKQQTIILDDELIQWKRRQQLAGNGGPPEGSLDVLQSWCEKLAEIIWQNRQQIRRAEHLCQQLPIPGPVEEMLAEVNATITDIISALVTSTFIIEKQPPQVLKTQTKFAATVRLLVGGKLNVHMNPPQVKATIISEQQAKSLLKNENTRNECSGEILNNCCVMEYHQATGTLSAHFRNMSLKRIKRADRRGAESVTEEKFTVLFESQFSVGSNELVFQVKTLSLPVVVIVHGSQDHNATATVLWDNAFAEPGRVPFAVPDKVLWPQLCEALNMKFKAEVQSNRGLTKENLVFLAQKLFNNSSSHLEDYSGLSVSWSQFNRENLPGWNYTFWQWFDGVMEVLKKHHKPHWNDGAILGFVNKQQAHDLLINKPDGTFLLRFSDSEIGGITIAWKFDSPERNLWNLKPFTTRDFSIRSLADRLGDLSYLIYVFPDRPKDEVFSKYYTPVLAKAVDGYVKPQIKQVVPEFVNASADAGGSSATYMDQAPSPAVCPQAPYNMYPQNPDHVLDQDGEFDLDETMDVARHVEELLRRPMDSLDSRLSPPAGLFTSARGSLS

[7] = target: Tyrosine-protein kinase Lck (Homo sapiens) (UniProt P06239); assay: Effect on LCK at Y394 phosphorylation level in human NCI-H1975 incubated for 12 hrs by human phosphokinase proteome profiler array relative to control
[8] = target: Serine/threonine-protein kinase AKT (Homo sapiens) (UniProt P31751+Q9Y243+P31749); assay: Effect on Akt1/2/3 at S473 phosphorylation level in human NCI-H1975 incubated for 12 hrs by human phosphokinase proteome profiler array relative to control
[9] = target: Proto-oncogene tyrosine-protein kinase Src (Homo sapiens) (UniProt P12931); assay: Effect on SRC at Y419 phosphorylation level in human NCI-H1975 incubated for 12 hrs by human phosphokinase proteome profiler array relative to beta-catenin
[10] = target: T2, STAT5A/STAT5B (Homo sapiens) (UniProt P42229+P51692); assay: Effect on STAT5a/b at Y694/Y699 phosphorylation level in human NCI-H1975 incubated for 12 hrs by human phosphokinase proteome profiler array relative to beta-catenin
[11] = target: Tyrosine-protein kinase Lck (Homo sapiens) (UniProt P06239); assay: Effect on LCK at Y394 phosphorylation level in human NCI-H1975 incubated for 12 hrs by human phosphokinase proteome profiler array relative to beta-catenin
[12] = target: T2, STAT5A/STAT5B (Homo sapiens); assay: Effect on STAT5a/b at Y694/Y699 phosphorylation level in human NCI-H1975 incubated for 12 hrs by human phosphokinase proteome profiler array relative to control
[13] = target: Heat shock protein beta-1 (Homo sapiens) (UniProt P04792); assay: Effect on HSP27 at S78/S82 phosphorylation level in human NCI-H1975 incubated for 12 hrs by human phosphokinase proteome profiler array relative to control
[14] = target: Cyclin-dependent kinase inhibitor 1B (Homo sapiens) (UniProt P46527); assay: Effect on p27 at T198 phosphorylation level in human NCI-H1975 incubated for 12 hrs by human phosphokinase proteome profiler array relative to control

`CCOc1ccc(-c2nc(/C(N)=N/O)c3[nH]c(=O)n(-c4ccccc4OC)c3n2)cc1` gave a fold change (FC) [1] of 1.7, a fold change (FC) [2] of 1.55 and a fold change (FC) [3] of 0.89. It also gave a fold change (FC) [4] of 0.84, a fold change (FC) [5] of 1.02 and a fold change (FC) [6] of 0.78. It also gave a fold change (FC) [7] of 0.66, a fold change (FC) [8] of 0.67 and a fold change (FC) [9] of 0.75. For the same compound, the fold change (FC) [10] was 0.97, the fold change (FC) [11] was 0.78 and the fold change (FC) [12] was 0.83. For the same compound, the fold change (FC) [13] was 0.77 and the fold change (FC) [14] was 1.65.
In the case of `CCOc1ccc(-c2nc(C(=O)NO)c3[nH]c(=O)n(-c4ccccc4OC)c3n2)cc1`, the fold change (FC) [1] was 1.04, the fold change (FC) [2] was 1.05 and the fold change (FC) [3] was 0.92. For the same compound, the fold change (FC) [4] was 0.73, the fold change (FC) [5] was 0.74 and the fold change (FC) [6] was 0.67. For the same compound, the fold change (FC) [7] was 0.65, the fold change (FC) [8] was 0.55 and the fold change (FC) [9] was 0.68. The fold change (FC) [10] was 0.93, the fold change (FC) [11] was 0.73 and the fold change (FC) [12] was 0.83. The fold change (FC) [13] was 0.75 and the fold change (FC) [14] was 1.75.
